Screening results (PubChem)
GSIS activator = GLuc luminescence reporter in INS-1E cells, primary screen for activators of glucose-dependent secretion of insulin; INS-1E GLuc reporter insulin secretion, 2-3 h; 370,000 compounds, 0.61% hits; activation, % at 16.6 µM;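 active = lowest replicate activation of at least 40%, so every replicate reaches that level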
SR-BI uptake up = activators of SR-BI mediated HDL lipid uptake; CHO ldlA[mSR-BI] cells, DiI-HDL uptake fluorescence, 3 h; 100 = double the neutral-control signal; 320,000 compounds, 0.096% hits; activation, % at 12.5 µM; AID 504775;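 active = mean replicate activation of at least 60% and every replicate at or above 60%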
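system = CHO ldlA[mSR-BI] cells, LDL receptor-null, SR-BI overexpressing | medium = Ham's F12 with 0.5% BSA, HEPES 25 mM, pH 7.4 | probe or stimulus = DiI-HDL 10 µg/mL | compound dosing = single-point compound dose | incubation = compound exposure 3 h, 37 °C | technique = DiI fluorescence, bottom read | read-out = cell-associated DiI fluorescence as measure of HDL uptake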
SR-BI HDL uptake = inhibitors of mouse SR-BI mediated HDL lipid uptake; Q61009; ldlA[mSR-BI] CHO cells, DiI-HDL uptake fluorescence, 3 h; inhibition, % at 12.5 µM; 320,000 compounds, 0.96% hits;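 active = mean replicate inhibition of at least 70% and a set share of replicates each scoring 70 or more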
Yeast UUG start = modulators of start codon recognition fidelity in yeast; AID 602363; activity score, % at 18.7 µM; S. cerevisiae UUG-firefly luciferase reporter, luminescence/redox ratio; actives 0.13% (n = 350,000);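 active = replicate mean at a twofold rise or more, about +100% in these data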;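 note: firefly luciferase made from a UUG start codon reports start codon fidelity; reporter light over untreated wells divided by growth signal over untreated wells; some hits fall short of that in this replicate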
Numbers stand for hits; n = inactive; x = not tested or not shown. A selection: hits, their analogues and other compounds. The true share with any hit is near 1.3%.

SMILES	GSIS activator	SR-BI uptake up	SR-BI HDL uptake	Yeast UUG start
CC(C)CC#Cc1ccc([C@@H]2[C@H]3CN(C(=O)NC4CCCCC4)CC(=O)N3[C@H]2CO)cc1	n	x	x	x
COCC(=O)Nc1ccc2c(c1)[C@@H]1C[C@H](CC(=O)N[C@@H](C)c3ccccc3)O[C@@H](CO)[C@@H]1O2	n	x	x	x
COc1ccc(C(=O)NC2CCN(CC(=O)Nc3cccc(C)c3)CC2)cc1OC	x	n	80	n
CCOc1ccc(NC(=O)CN2CCN(CC(=O)c3ccc(OC)c(OC)c3)CC2)cc1	x	n	n	n
Cc1cc(C)cc(NC(=O)CN2CCC(NC(=O)c3cccc(F)c3)CC2)c1	n	n	n	n
CCCCOc1ccc(C(=O)N2CCN(CC(=O)Nc3ccc(C)cc3)CC2)cc1OC	n	n	78	n
O=C(Cc1ccccn1)NCC[C@H]1CC[C@H](NC(=O)Nc2ccc(F)cc2)[C@H](CO)O1	n	x	x	n
CCC(=O)N1CC[C@@H]2[C@@H](CO)Nc3ccc(C#Cc4cccc(OC)c4)cc3[C@@H]21	n	x	x	x
C=CCNc1sc(C(=O)C2CC2)c(N)c1C#N	65	n	n	n
C[C@@H]1CCCCO[C@@H](CN(C)C(=O)c2ccncc2)[C@H](C)CN([C@H](C)CO)C(=O)c2cc(NC(=O)c3ccccc3)ccc2O1	n	x	x	x
CC(C)OCC(O)CN1CCC(Cc2ccccc2)CC1 (stereo unspecified)	44	n	n	n
OC(COc1ccc(Br)cc1)CN1CCC(Cc2ccccc2)CC1 (stereo unspecified)	n	n	n	n
O=C(Nc1ccc(Cl)cc1)Nc1ccc(Cl)c(Cl)c1	n	x	x	x
O=C(Nc1ccc(N2CCCCC2)c(S(=O)(=O)Nc2ccccc2Cl)c1)c1cccnc1	x	n	n	n
O=C(Nc1ccc(Cl)c(Cl)c1)Nc1ccc(N2CCCC2)c(S(=O)(=O)Nc2ccccc2Cl)c1	n	n	86	x
O=C(Nc1ccc(Cl)c(Cl)c1)N1CCSCC1	x	320	n	n
O=C(Nc1ccc(Cl)c(Cl)c1)N1CCCCCC1	n	n	n	n
O=C(Nc1ccc(Cl)c(Cl)c1)Nc1ccccc1O	n	n	78	n
O=C(Nc1ccc(F)cc1)Nc1ccc(N2CCCC2)c(S(=O)(=O)Nc2ccccc2Cl)c1	x	n	87	x
CN(C)C(=O)c1cccc(-c2ccc(C3[C@@H]4CN(S(=O)(=O)c5cccc(Cl)c5)C[C@H]3N4)cc2)c1 (stereo partly specified)	n	x	x	x
C=CCNC(=S)N/N=C/c1ccc(-c2ccc(Cl)cc2Cl)o1	n	n	71	n
COC(=O)N/N=C/c1ccc(-c2ccc(Cl)cc2Cl)o1	n	n	n	n
C=CCNC(=S)N/N=C/c1ccc(-c2cc(Cl)ccc2Cl)o1	124	n	n	n
NC(=S)N/N=C/c1ccc(-c2cc(Cl)c(Cl)cc2Cl)o1	n	n	82	x
COCC(=O)N(C)C[C@H]1Oc2ncc(C#Cc3ccc(F)cc3)cc2C(=O)N([C@H](C)CO)C[C@H]1C	n	x	x	n
SMILES	GSIS activator	SR-BI uptake up	SR-BI HDL uptake	Yeast UUG start
COc1cc(OC)c(NC(=O)c2cc3ccccc3cc2O)cc1Cl	x	n	94	n
COc1cc(NC(=O)c2ccccc2)c(OC)cc1Cl	x	n	86	n
COc1cc(N)c(Cl)cc1NC(=O)c1ccccc1	x	n	n	n
CO[C@@H]1CN(C)C(=O)c2ccc(NC(=O)C3CC3)cc2OC[C@H](C)N(Cc2cncnc2)C[C@H]1C	n	x	x	x
O=C(N[C@H]1CC[C@@H](CCNC(=O)C2CCOCC2)O[C@@H]1CO)c1ccncc1	n	x	x	n
C[C@H](CO)N1C[C@H](C)[C@H](CN(C)C)OCCCC[C@H](C)Oc2ccc(NC(=O)Nc3ccc(F)cc3)cc2C1=O	n	x	x	x
COC(=O)C[C@@H]1C=C[C@H](NC(=O)Cc2ccccn2)[C@@H](CO)O1	64	x	x	x
COC(=O)C[C@H]1C=C[C@H](NC(=O)Cc2ccccc2)[C@@H](CO)O1	n	x	x	x
CC(C)C#Cc1cnc2c(c1)C(=O)N([C@@H](C)CO)C[C@@H](C)[C@@H](CN(C)C(=O)c1ccc3c(c1)OCO3)O2	n	x	x	x
COC(=O)c1ccccc1NC(=O)Nc1cc(C)ccn1	n	n	n	x
Cc1ccnc(NC(=O)Nc2ccc(Br)cc2Cl)c1	133	n	n	x
CN(C)CCNC=C(C(=O)Nc1ccc(Cl)cc1Cl)C(=O)Nc1ccc(Cl)cc1Cl	x	82	n	n
Cc1ccc(-c2cc(C(F)F)nc(NCC3CCCO3)n2)cc1 (stereo unspecified)	n	223	n	x
Cc1ccc(-c2nc(C#N)c(NCC3CCCO3)o2)cc1 (stereo unspecified)	40	n	n	x
COc1ccc(-c2nc(C#N)c(NCC3CCCO3)o2)cc1 (stereo unspecified)	x	n	n	n
C[C@@H]1CN([C@H](C)CO)S(=O)(=O)c2ccc(C#Cc3ccccc3)cc2O[C@H]1CN(C)C(=O)c1ccccn1	n	x	x	n
COc1ccccc1NC(=O)NCc1ccco1	n	n	n	x
O=C(Nc1ccc([N+](=O)[O-])cc1)Nc1ccc2c(c1)OCCO2	n	n	n	x
COc1ccc(N2CCN(CCNC(=O)Nc3ccc([N+](=O)[O-])cc3OC)CC2)cc1	n	n	76	n
COc1ccc(OC)c(NC(=O)NCCN2CCN(c3ccccc3)CC2)c1	n	n	n	n
COc1cc(NC(=O)NCc2ccco2)ccc1-c1ccc(NC(=O)NCc2ccco2)cc1OC	n	n	74	n
COc1cc([N+](=O)[O-])ccc1NC(=O)Nc1ccc2c(c1)OCCO2	n	n	97	x
COc1cc([N+](=O)[O-])ccc1NC(=O)NCc1ccco1	n	n	72	x
C[C@@H]1CCCCO[C@@H](CN(C)S(=O)(=O)c2ccccc2)[C@@H](C)CN([C@H](C)CO)C(=O)c2cc(NC(=O)c3ccncc3)ccc2O1	n	x	x	n
O=C(C[C@H]1C=C[C@H](NC(=O)Nc2ccc3c(c2)OCO3)[C@@H](CO)O1)NCc1ccc(Cl)cc1	n	x	x	n
SMILES	GSIS activator	SR-BI uptake up	SR-BI HDL uptake	Yeast UUG start
C[C@H]1CN(C)C(=O)Cc2ccccc2O[C@H]1CN(C)S(C)(=O)=O	n	x	x	x
C/C=C/c1ccc2c(c1)O[C@@H](CN(C)C(=O)C1CCOCC1)[C@@H](C)CN([C@H](C)CO)S2(=O)=O	n	x	x	n
CCc1cccc(CC)c1NC(=O)COC(=O)c1cccc(S(=O)(=O)N2CCc3ccccc3C2)c1	x	n	n	x
Cc1cccc(C(C)C)c1NC(=O)COC(=O)c1cccc(S(=O)(=O)N2CCc3ccccc3C2)c1	121	n	n	x
O=C(CC(NC(=O)c1ccccc1)c1ccccc1)Nc1cccc2ccccc12 (stereo unspecified)	95	n	n	n
O=C(CC(NC(=O)c1ccccc1)c1ccccc1)NCc1ccccc1 (stereo unspecified)	n	n	n	n
Cc1noc(C)c1NC(=O)Nc1ccc2c(c1)CC(=O)N([C@@H](C)CO)C[C@@H](C)[C@H](CN(C)S(=O)(=O)c1ccc(Cl)cc1)O2	n	x	x	n
COc1ccc(-n2c(=S)[nH]c3cc(C(=O)Nc4ccc(OC)c(OC)c4)ccc3c2=O)cc1	76	n	n	n
Cc1ccc(C(=O)Nc2ccc(Nc3ccccc3)cc2)cc1C	n	n	99	n
